Values quoted from earlier work in article PMC5099547 (British Journal of Clinical Pharmacology, 2016).

System: CYP3A4
Conditions: cited from earlier work

cyclosporine
degree of CYP3A4 inhibitory activity: weak
